Measured values: patent US7674471B2, “Topical composition, topical composition precursor, and methods for manufacturing and using” (Skinvisible Pharmaceuticals, Inc., priority 2001, dated 2010)

Tests used:
[1] = in vivo; cited from earlier work
[2] = solubility in water or solvents
Text: In addition, β-cyclodextrin is a relatively small molecule with all of its —OH groups lying on the outside of the molecule. If all of the —OH groups formed complexes with pyrrolidone groups, none would be available to promote water solubility.

## Poly(vinylpyrrolidone/1-eicosene) [PVPE]
[1]
  dermal toxicity: no demonstrable dermal toxicity
[2]
  solubility in water: highly insoluble in water

## Poly(vinylpyrrolidone/1-hexadecene) [PVPH]
[1]
  dermal toxicity: no demonstrable dermal toxicity
[2]
  solubility in water: insoluble in water
